From ChEMBL document CHEMBL3593245 (J Med Chem, 2015)
Values after ≈ are worked out from the molar mass of the structure shown.

Columns and labels:
[1] = molecular target: T1, Rap guanine nucleotide exchange factor 4 (Mus musculus) (UniProt Q9EQZ6); assay: Ratio of cAMP IC50 to compound IC50 for displacement of 8-NBD-cAMP from mouse recombinant EPAC2 by fluorescence assay
T1 sequence (whole entry): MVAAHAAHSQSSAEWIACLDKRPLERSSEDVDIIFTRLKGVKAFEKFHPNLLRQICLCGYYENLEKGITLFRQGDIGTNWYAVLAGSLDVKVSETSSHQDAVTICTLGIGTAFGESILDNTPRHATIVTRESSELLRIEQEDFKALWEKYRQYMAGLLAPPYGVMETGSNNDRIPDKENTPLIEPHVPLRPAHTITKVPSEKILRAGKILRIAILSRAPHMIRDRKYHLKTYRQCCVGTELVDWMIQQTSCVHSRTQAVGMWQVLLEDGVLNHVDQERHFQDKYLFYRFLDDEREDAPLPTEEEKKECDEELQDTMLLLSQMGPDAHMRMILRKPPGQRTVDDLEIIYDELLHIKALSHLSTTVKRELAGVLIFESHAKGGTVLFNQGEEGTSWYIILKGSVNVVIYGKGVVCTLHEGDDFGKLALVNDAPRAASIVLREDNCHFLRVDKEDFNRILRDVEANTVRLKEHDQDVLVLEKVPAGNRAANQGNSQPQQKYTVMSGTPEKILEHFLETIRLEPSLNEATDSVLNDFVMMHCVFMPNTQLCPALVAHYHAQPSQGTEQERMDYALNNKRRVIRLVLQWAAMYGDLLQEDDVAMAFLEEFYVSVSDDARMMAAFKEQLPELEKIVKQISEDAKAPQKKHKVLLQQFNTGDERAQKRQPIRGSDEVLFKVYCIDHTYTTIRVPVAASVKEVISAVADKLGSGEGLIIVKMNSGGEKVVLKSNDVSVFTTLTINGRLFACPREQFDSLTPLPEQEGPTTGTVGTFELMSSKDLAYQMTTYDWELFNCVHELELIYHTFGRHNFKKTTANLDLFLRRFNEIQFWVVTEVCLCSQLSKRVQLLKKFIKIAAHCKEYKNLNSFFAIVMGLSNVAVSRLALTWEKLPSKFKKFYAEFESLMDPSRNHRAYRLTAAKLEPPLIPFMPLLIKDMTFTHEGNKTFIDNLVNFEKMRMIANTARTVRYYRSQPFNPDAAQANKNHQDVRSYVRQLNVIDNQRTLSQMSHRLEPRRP

[2] = […] solubility of the compound in water after 24 hrs by HPLC analysis; type: physicochemical; settings: buffer

## N#C/C(=N\Nc1cccc(Cl)c1)C(=O)c1cc(C2CC2)on1
[1]
  Ratio IC50: 0.5

## CC(C)(C)c1cc(C(=O)/C(C#N)=N/Nc2cc(Cl)cc(C(F)(F)F)c2)no1
[1]
  Ratio IC50: 20
[2]
  solubility: 50.4 µM (≈ 20.1 µg/mL)

## CC(C)(C)c1cc(C(=O)/C(C#N)=N/Nc2cccc(C#N)c2)no1
[1]
  Ratio IC50: 0.5

## CC(C)(C)c1cc(C(=O)/C(C#N)=N/Nc2cc(Cl)c(Cl)c(Cl)c2)no1
[1]
  Ratio IC50: 35.6

## CCOC(=O)c1cccc(N/N=C(\C#N)C(=O)c2cc(C(C)(C)C)on2)c1
[1]
  Ratio IC50: 0.4

## CC(C)(C)c1cc(C(=O)/C(C#N)=N/Nc2cc(C(F)(F)F)cc(C(F)(F)F)c2)no1
[1]
  Ratio IC50: 5
